{"source": "ChEMBL document CHEMBL5584349", "key": {"[1]": {"target": "T1, Aurora kinase A (Mus musculus) (UniProt P97477)", "T1 sequence (whole entry)": "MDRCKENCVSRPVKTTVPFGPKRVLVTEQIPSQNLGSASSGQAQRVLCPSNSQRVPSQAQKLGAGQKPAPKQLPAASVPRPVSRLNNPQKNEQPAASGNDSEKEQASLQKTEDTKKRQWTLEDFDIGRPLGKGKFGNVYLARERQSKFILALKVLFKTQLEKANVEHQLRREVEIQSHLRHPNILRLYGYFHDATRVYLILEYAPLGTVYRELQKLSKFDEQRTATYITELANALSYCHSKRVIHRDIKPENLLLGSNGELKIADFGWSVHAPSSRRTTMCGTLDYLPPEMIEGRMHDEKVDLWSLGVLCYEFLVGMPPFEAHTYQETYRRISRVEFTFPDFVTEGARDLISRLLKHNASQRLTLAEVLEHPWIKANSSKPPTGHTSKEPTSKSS", "settings": "NSG, dose 30.0 mg/kg, route po, time 8-12 hrs"}, "[2]": {"target": "T2, Aurora kinase A (Homo sapiens) (UniProt O14965)", "T2 sequence (whole entry)": "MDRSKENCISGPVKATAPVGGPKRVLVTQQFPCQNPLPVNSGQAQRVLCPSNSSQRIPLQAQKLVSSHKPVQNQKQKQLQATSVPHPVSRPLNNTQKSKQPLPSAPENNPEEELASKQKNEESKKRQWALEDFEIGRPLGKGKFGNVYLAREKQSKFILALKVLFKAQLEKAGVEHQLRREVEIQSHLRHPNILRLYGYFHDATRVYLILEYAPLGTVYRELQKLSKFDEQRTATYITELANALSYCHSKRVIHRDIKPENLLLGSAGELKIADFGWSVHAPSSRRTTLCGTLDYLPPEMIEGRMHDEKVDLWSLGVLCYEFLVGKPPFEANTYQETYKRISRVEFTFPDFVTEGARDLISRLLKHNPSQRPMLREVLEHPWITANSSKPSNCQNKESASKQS", "settings": "Jurkat, dose 14.0 nM, time 8.0 hrs"}, "[3]": {"target": "T2, Aurora kinase A (Homo sapiens)", "settings": "Jurkat, dose 7-35 nM, time 24.0 hrs"}, "[4]": {"system": "HeLa", "assay": "cells", "settings": "Homo sapiens, 72 h"}, "[5]": {"system": "Jurkat", "assay": "cells", "settings": "Homo sapiens, 72 h"}, "[6]": {"target": "T1, Aurora kinase A (Mus musculus)", "settings": "NSG, dose 200.0 mg/kg, route po, time 8-12 hrs"}, "[7]": {"target": "T1, Aurora kinase A (Mus musculus)", "settings": "NSG, dose 200.0 mg/kg, route po, time 8-12 hrs", "remark": "listed apart in the source"}}, "note": "Active and inactive are the calls of the source. The rule behind the calls is not given here.", "data": [{"smiles": "COc1cc(Nc2ncc3c(n2)-c2ccc(Cl)cc2C(c2c(F)cccc2OC)=NC3)ccc1C(=O)O", "values": [{"measurement": "inhibition", "setting": "[1]", "value": "inactive"}, {"measurement": "inhibition", "setting": "[2]", "value": "Active"}, {"measurement": "inhibition", "setting": "[3]", "value": "Active"}]}, {"smiles": "Cc1c(C(=O)NS(=O)(=O)N(C)C)cc(-c2ccc(Cl)cc2)c2cc[nH]c12", "values": [{"measurement": "GI50", "setting": "[4]", "value": 51.5, "unit": "µM"}, {"measurement": "GI50", "setting": "[5]", "value": 27.4, "unit": "µM"}]}, {"smiles": "Cc1c(C(=O)NS(=O)(=O)N(C)C)cc(-c2ccc(Cl)c(Oc3ccccn3)c2)c2cc[nH]c12", "values": [{"measurement": "GI50", "setting": "[4]", "value": 21.8, "unit": "µM"}, {"measurement": "inhibition", "setting": "[6]", "value": "Active"}, {"measurement": "inhibition", "setting": "[7]", "value": "Active"}, {"measurement": "GI50", "setting": "[5]", "value": 10.3, "unit": "µM"}]}, {"smiles": "Cc1c(C(=O)O)cc(-c2ccc(Cl)c(C#N)c2)c2cc[nH]c12", "values": [{"measurement": "GI50", "setting": "[4]", "value": 48.1, "unit": "µM"}, {"measurement": "GI50", "setting": "[5]", "value": 10.8, "unit": "µM"}]}]}
